Test: Volume of distribution at steady state in cynomolgus monkey at 20 mg/kg, iv measured upto 24 hrs by LC-MS/MS analysis
Assay type: ADME, organism-based, Macaca fascicularis
Settings: in vivo

With `N#C[C@@]1(c2ccc3c(N)ncnn23)O[C@H](CO)[C@@H](O)[C@H]1O` [GS-441524] as the compound, how does the Vdss read?
The Vdss was 1.03 L/kg.

Reference: ChEMBL document CHEMBL5321279 (J Med Chem, 2023)
